Test results from article PMC7723054.
The other results are listed elsewhere or left out.

T1: LIN28A (human?, UniProt Q9H9Z2 1-209)
T1 sequence: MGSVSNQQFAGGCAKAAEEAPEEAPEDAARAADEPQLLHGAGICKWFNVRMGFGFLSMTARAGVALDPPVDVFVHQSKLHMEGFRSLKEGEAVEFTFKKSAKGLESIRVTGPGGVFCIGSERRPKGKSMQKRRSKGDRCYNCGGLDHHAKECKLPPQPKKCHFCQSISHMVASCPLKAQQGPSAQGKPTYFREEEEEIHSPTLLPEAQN

T2: CIRBP (Homo sapiens, UniProt Q14011 1-172)
T2 sequence: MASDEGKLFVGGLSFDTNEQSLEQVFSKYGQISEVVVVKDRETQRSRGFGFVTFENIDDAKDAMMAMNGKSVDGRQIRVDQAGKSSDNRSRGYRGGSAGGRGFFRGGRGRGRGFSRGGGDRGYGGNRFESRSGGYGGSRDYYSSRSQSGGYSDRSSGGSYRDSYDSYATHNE

T3: DHX36 (Homo sapiens, UniProt Q9H2U1 1-1008)
T3 sequence: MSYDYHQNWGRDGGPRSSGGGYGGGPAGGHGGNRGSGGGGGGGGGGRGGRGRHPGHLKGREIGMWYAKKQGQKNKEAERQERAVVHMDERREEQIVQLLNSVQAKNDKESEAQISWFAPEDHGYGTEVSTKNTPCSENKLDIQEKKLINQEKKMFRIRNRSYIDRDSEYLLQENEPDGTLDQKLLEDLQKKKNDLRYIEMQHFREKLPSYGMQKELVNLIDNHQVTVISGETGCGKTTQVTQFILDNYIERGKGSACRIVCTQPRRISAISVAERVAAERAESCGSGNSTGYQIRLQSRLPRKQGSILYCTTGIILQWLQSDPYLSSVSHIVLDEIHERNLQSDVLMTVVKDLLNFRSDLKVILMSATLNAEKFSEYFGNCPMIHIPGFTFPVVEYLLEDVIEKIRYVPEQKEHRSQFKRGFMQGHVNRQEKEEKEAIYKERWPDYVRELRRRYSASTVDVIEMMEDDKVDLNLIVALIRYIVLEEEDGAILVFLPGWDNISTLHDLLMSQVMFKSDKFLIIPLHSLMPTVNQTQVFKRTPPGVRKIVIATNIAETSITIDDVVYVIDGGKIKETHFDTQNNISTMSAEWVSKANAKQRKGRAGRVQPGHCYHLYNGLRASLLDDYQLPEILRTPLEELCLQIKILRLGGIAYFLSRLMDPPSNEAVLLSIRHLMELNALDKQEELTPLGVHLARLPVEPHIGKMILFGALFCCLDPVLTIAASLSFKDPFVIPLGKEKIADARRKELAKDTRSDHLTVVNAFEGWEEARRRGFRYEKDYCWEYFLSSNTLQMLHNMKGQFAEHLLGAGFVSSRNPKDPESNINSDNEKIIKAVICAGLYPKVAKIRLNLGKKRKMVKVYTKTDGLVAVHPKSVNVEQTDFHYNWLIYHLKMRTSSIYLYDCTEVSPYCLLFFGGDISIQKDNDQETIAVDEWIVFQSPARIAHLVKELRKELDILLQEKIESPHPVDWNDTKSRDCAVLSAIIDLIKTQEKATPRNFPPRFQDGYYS

B1: hsa-mir-5690 (structured_RNA)
RNA: GGGAAAUGGACGAGUCCCCGUUAACCAAGGUGUACGAAGUUUCAGCUAGGAUUUGGGAGUUAUACUAGCUGAAGCUUCGUGCAC
B2: hsa-mir-6774 (structured_RNA)
RNA: GGGAACAGUCGGUCGUUUUGAAGCCCUAGGUGUACGAAGUUUCAGCCCUGUAUGUCUCCCCGCAGCACCGUCAUCGUGCUGAAGCUUCGUGCAC
B3: hsa-mir-1537 (structured_RNA)
RNA: GGGACGCAGUUCAGGUUACUACAAGGCCGGUGUACGAAGUUUCAGCUUUUCUGUCCUGUCCACACAGAAAAGCUGAAGCUUCGUGCAC
B4: hsa-let-7d (structured_RNA)
RNA: GGGAACAAUAGGCGGAGCUUGUCAUAAUGGUGUACGAAGUUUCAGCAUAGUUUUAGGGCAGGGAUUUUGCCCACAAGGAGGUAACUAUGCUGAAGCUUCGUGCAC
B5: hsa-mir-4276 (structured_RNA)
RNA: GGGAGUAUGAUUCAACCCAGCCUCGCGAGGUGUACGAAGUUUCAGCGUGCUGGCAGUGGCCACGUAAGCUGAAGCUUCGUGCAC
B6: hsa-mir-501 (structured_RNA)
RNA: GGGAUAUACCUUGAUAGGCCCCGACCGGGGUGUACGAAGUUUCAGCGAGAGUGCUUUCUGAAUGCAAUGCGCUGAAGCUUCGUGCAC
B7: hsa-mir-9500 (structured_RNA)
RNA: GGGACGACUGUCGCGAACCUGAACACUUGGUGUACGAAGUUUCAGCCCACAUAGGAGGGACAGCGGCCUUUCCAACAGGGCUGAAGCUUCGUGCAC
B8: hsa-let-7a-1 (structured_RNA)
RNA: GGGAAGCACCCAGCAUGGAUGCAACUGAGGUGUACGAAGUUUCAGCAUAGUUUUAGGGUCACACCCACCACUGGGAGAUAACUAUGCUGAAGCUUCGUGCAC
B9: hsa-mir-1265 (structured_RNA)
RNA: GGGACUGCACAGAUUACGAGUUCCUGCAGGUGUACGAAGUUUCAGCUGUUAAGGCAUGUUCAGGAACAGCUGAAGCUUCGUGCAC
B10: hsa-mir-645 (structured_RNA)
RNA: GGGAAAGCACGAUCACGGCAAGCUUAUGGGUGUACGAAGUUUCAGCUGUGGCCUGGGGGUUGAGGACCCCUGCUCUAGCUGAAGCUUCGUGCAC
B11: NEAT1_ParasoR_ID12 (structured_RNA)
RNA: GGGACCCAUCAACGCGCUAACACCACAUGGUGUACGAAGUUUCAGCAGCAAAAUUUUAAUGACUAAAUACUGUCUUUGAUUUUUUGUUGCUGAAGCUUCGUGCAC
B12: hsa-mir-6727 (structured_RNA)
RNA: GGGAAAGGUGCACAUUUUAACUCAGCGUGGUGUACGAAGUUUCAGCGGGAGCGGCCCUCACAUUGAUGGCUCCUGCUGAAGCUUCGUGCAC

Target: U1A (Homo sapiens, UniProt P09012)
Assay: FOREST: bead pull-down of RNA structure library v1, barcode microarray; U1A/LIN28A: 20 mM HEPES pH 7.5, 80 mM KCl, 20 mM NaCl, 10% glycerol, 2 mM DTT, 0.1 ug/uL BSA, 4 C; BG4/CIRBP/DHX36: 10 mM Tris-HCl pH 7.5, 100 mM KCl (or LiCl),; high values mean tight binding

Binder	binding signal [z-score]
B1	0.0117
B2	1.67
B3	0.00911
B4	0.0128
B5	0.00483
B6	0.0132
B7	0.0143
B8	1.65
B9	0.00849
B10	0.013
B11	0.00725
B12	1.64

Target: T1, LIN28A
Assay: as above

Binder	binding signal [z-score]
B1	1.36
B2	-0.189
B3	-0.15
B4	3.3
B5	-0.318
B6	0.35
B7	-1.72
B8	1.84
B9	0.446
B10	0.488
B11	-0.919
B12	0.74

Target: T2, CIRBP
Assay: as above

Binder	binding signal [z-score]
B1	0.47
B2	-1
B3	0.387
B4	1.48
B5	-0.354
B6	0.348
B7	0.347
B8	-0.85
B9	-1.13
B10	1.96
B11	-1.08
B12	0.334

Target: T3, DHX36
Assay: as above

Binder	binding signal [z-score]
B1	1.36
B2	0.389
B3	-0.685
B4	1.4
B5	-0.508
B6	0.139
B7	-0.00321
B8	0.889
B9	-0.176
B10	0.504
B11	-0.222
B12	0.681
